A selection: hits, their analogues and other compounds. The true share with any hit is near 0.43%.
Rango release inh: inhibition of RanGTP-driven Rango-importin beta dissociation; O95149+P62826; Biochemical FRET Rango-importin beta, RanGTP-induced dissociation; Potency, µM (doses to about 46.1 µM), for the others: top-dose activity change, negative = inhibition; 340,000 compounds, 0.071% hits; AID 540253; calls by dose curve; further: % of control where 0% means no effect; nearly all actives have a fitted effect of over 45% in size
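Recombinant Rango FRET biosensor (EYFP–snurportin 1 IBB–cerulean CFP10) at 0.1 uM premixed with 0.25 uM importin beta in PBS, 1 mM DTT, 0.02% Tween-20, 0.1% BSA. Compound added 5 min; RanGTP-RCC1 (0.6 uM Ran, 2 mM GTP, 0.2 uM RCC1) then triggers release, read at 45 min.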
EPAC2 antagonist: antagonists of human EPAC2 | 360,000 compounds, 0.18% hits | Q8WZA2 | AID 720708 | EPAC2 GEF exchange of Rap1B-BODIPY-GDP, fluorescence | Potency, µM (titrated, usually from 114 µM), for inactives: at the highest dose activity, negative = inhibition, actives largely listed as inhibitors; further: on the % scale 0 is the no-effect control and ±100 the full control effect; nearly all actives have a fitted effect of over 45% in size
EPAC1 antag: antagonists of human EPAC1 | AID 720709 | Potency, µM (titrated, usually from 115 µM), without a hit: at the top dose activity change, negative = inhibition, actives largely listed as inhibitors | O95398 | EPAC1 GEF assay, Rap1b-BODIPY-GDP exchange fluorescence | 360,000 compounds, 0.14% hits;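 further: plate controls were vehicle for no effect and positive control for full effect; nearly all actives have a fitted effect of over 50% in size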
Rango-impB inh: inhibitors of Rango-importin beta complex formation | Q14974 | Rango CFP/YFP FRET sensor + importin beta, 45 min | Potency, µM (doses to about 92.2 µM), for the others: at the highest dose inhibition of complex formation | 340,000 compounds, 0.031% hits; calls by dose curve;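 further: 0% = DMSO wells and 100% = buffer wells lacking importin beta; nearly all actives have a fitted effect of over 15% in size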
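FRET biosensor Rango (snurportin 1 IBB between N-terminal EYFP and C-terminal Cerulean), 50 nM in PBS/1 mM DTT/0.02% Tween-20/0.1% BSA, preincubated 5 min RT with compound; 0.125 microM importin beta added, 45 min RT, CFP/YFP FRET ratio read.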
EPAC2 ag: agonists of human EPAC2 (RAPGEF4). EPAC2 activation, biochemical qHTS; response scale: 100% = 6.5 mM cAMP response. Potency, µM (titrated, usually from 154 µM), for the others: at the top dose activation, usual class: activators. 360,000 compounds, 0.079% hits. AID 720711; further: nearly all actives have a fitted effect of over 50% in size
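Compounds were titrated in qHTS against a Rap1B-BODIPY-GDP (250 nM) complex with EPAC2 (100 nM) and GDP (50 uM). BODIPY-GDP release tracked at 480/540 nm over 30 min at room temperature, normalized to 6.5 mM cAMP.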
EPAC1 agonist: EPAC1 (human) agonism | AID 720707 | EPAC1 agonist qHTS, biochemical assay; response scale: 100% = response to 6.5 mM cAMP | 360,000 compounds, 0.073% hits | O95398 | Potency, µM (highest dose often 154 µM), for inactives: top-dose activation, usual class: activators; further: nearly all actives have a fitted effect of over 60% in size
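Compounds were pinned as a concentration titration into mixtures of EPAC1 (100 nM), BODIPY-GDP-loaded Rap1B (250 nM) and GDP (50 uM). After 5 min at room temperature, fluorescence was followed for 30 min; activity was scaled to 6.5 mM cAMP.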
Numbers without * were called inactive; ? = inconclusive; nt = no result given; [ ] = another dose, or the depositor's remark. Unless noted, the call rests on the fitted dose curve; in most records, active means well fitted curve in the direction sought with a large enough effect; inconclusive means small, poorly fitted or top-dose-only effect, or another doubt; inactive means no such curve, though single readings can be large; an effect the other way counts as inactive or inconclusive. Potency means the concentration at half of the fitted maximal effect.

SMILES | Rango release inh | EPAC2 antagonist | EPAC1 antag | Rango-impB inh | EPAC2 ag | EPAC1 agonist
CN(C)c1ccc(/C=C/C(=O)c2c(O)c3ccccc3oc2=O)cc1 | ? | -2.5% | ? | -0.2% | 21.4% | 0.6%
CCOc1ccc(/C=C/C(=O)c2c(O)c3ccccc3oc2=O)cc1 | -3.7% | 0.7% | 42.5% | 0.8% | 11.5% | 100µM*
CC(C)(C)c1cc(=O)n(-c2ccccc2)[nH]1 | 11.0% | 19.6% | 50.1µM* | 46.1µM* | 5.2% | -2.7%
COc1ccc(NC(=O)CCCc2ccccc2)c(OC)c1 | 16.4µM* | 2.3% | -14.2% | -0.1% | 4.8% | -5.8%
O=S(=O)(Nc1ccccc1-c1ccccc1)c1ccccc1 | 2.4% | 50.1µM* | -18.5% | 1.7% | 17.1% | 12.1%
CCc1ccc(/C=C2\Oc3cc(OS(C)(=O)=O)ccc3C2=O)cc1 | 8.2µM* | -14.7% | -5.1% | ? | 0.1% | 10.6%
O=C(Nc1cc(S(=O)(=O)N2CCCCC2)ccc1Cl)c1ccccc1NS(=O)(=O)c1ccc(F)cc1 | -10.0% | -17.3% | 50.1µM* | 4.1% | -10.2% | -0.4%
Cc1ccc(S(=O)(=O)Nc2nc(-c3ccccc3)cs2)cc1 | 4.1% | -1.3% | -25.3% | 4.8% | 8.8% | -0.3%
Cc1ccc(S(=O)(=O)Nc2ccccc2C(=O)Nc2nc(-c3ccc(F)cc3)cs2)cc1 | 4.1% | -23.5% | 79.4µM* | 0.1% | -2.1% | 8.9%
COc1ccc(-c2csc(NC(=O)c3ccccc3F)n2)cc1 | 9.1% | 2.9% | -6.3% | -4.0% | 13.5% | 17.3%
COc1ccc(-c2csc(NC(=O)c3ccccc3NS(=O)(=O)c3ccc(F)c(F)c3)n2)cc1 | -13.6% | 15.8µM* | 50.1µM* | 0.3% | 10.1% | -1.1%
C(=C\c1ccccc1)/C=N/Nc1ccc2nncn2n1 | 3.3% | 7.8% | -9.6% | 0.6% | 6.2% | -10.6%
c1cnc(NCCSSCCNc2ncccn2)nc1 | nt | 0.2% | -7.0% | nt | 17.5% | 2.8%
COc1ccc(N2C(=O)C3CCCN3C2c2cccc(C)c2)cc1 (stereo not given) | 0.0% | 3.6% | 31.9% | 0.7% | 5.6% | 17.2%
N#Cc1cccc2c1-c1ccccc1/C2=N/NC(N)=S | -8.0% | 17.0% | ? | 1.1% | 14.3% | -1.1%
NC(=S)NN=C1c2ccccc2-c2c(F)c(F)c(F)c(F)c21 | 1.5% | 17.0% | -13.8% | 73.1µM* | 7.6% | -7.2%
O=C(Cc1c[nH]c2ccccc12)OCC(=O)c1ccccc1 | 1.3% | -2.4% | -6.0% | 2.1% | 10.5% | 9.2%
COc1ccc(NS(=O)(=O)c2ccc3c(c2)[C@H]2C=CC[C@H]2[C@@H](c2ccc(C(=O)O)cc2)N3)cc1 | -16.6% | -0.6% | ? | ? | -6.3% | 5.3%
Cc1c(Cl)cccc1NS(=O)(=O)c1ccc2c(c1)C1C=CCC1C(c1ccc(C(=O)O)cc1)N2 (stereo not given) | -6.2% | -17.2% | 56.2µM* | 1.3% | -4.3% | -7.1%
COC(=O)c1ccc(NCc2cc(O)ccc2O)cc1O | 7.5% | -0.8% | -3.5% | 18.4µM* | 6.8% | -3.8%
Cc1cc(O)cc(C)c1NS(=O)(=O)c1ccc2ccccc2c1 | 16.0% | 11.2µM* | -4.8% | 1.4% | 12.8% | 3.5%
CNS(=O)(=O)c1ccc2ccccc2c1 | 14.2% | -5.5% | -3.4% | -2.8% | 4.2% | 12.0%
CCN(CC)c1ccc2c(c1)oc(=O)c1c(Cl)cc(=O)oc12 | ? | 45.7% | 20.5% | ? | 89.1µM* | -27.4%
CCN1CCc2c(sc(NC(=O)c3ccc(S(=O)(=O)N(C)c4ccccc4)cc3)c2C(=O)NC)C1 | ? | 18.4% | 7.0% | ? | 100µM* | 8.3%
COc1ccc(NC(=O)c2cccnc2NCCc2ccccc2)cc1 | 14.3% | -4.5% | 51.8% | ? | 31.6µM* | 56.2µM*
CN(C)Cc1n[nH]c(=O)c2ccccc12 | -29.7% | 3.3% | -11.7% | -0.9% | 5.3% | -1.9%
CN(C)c1ccc(/C=C2\SC(=S)N(Nc3ncc(C(F)(F)F)cc3Cl)C2=O)cc1 | ? | 65.7% | 35.4% | ? | 112µM* | 112µM*
CCOc1cc(/C=C2\CCC/C(=C\c3cc(Cl)c(O)c(OCC)c3)C2=O)cc(Cl)c1O | 6.51µM* | 7.9% | -8.1% | ? | -5.9% | -2.2%
CC(C)C[C@H]1COCCS(=O)(=O)N1Cc1cccc(C(F)(F)F)c1 | -17.1% | 14.1µM* | -22.9% | 4.8% | -9.2% | -32.1%
COc1cccc(CC2(CO)CCCN(Cc3[nH]c4ccc(C)cc4c3C)C2)c1 (stereo not given) | 40.9% | -21.5% | -23.5% | ? | 1.6% | -7.9%

Looked up above.
Cc1ccc(S(=O)(=O)Nc2nc(-c3ccccc3)cs2)cc1 @ EPAC1 antag: -25.3%
O=C(Cc1c[nH]c2ccccc12)OCC(=O)c1ccccc1 @ Rango-impB inh: 2.1%

(more compounds)
SMILES | Rango release inh | EPAC2 antagonist | EPAC1 antag | Rango-impB inh | EPAC2 ag | EPAC1 agonist
CCCC(=O)O[C@@H]1C[C@@H](C)N(C(=O)c2ccccc2)c2ccc(C)cc21 | 14.7% | 20µM* | 8.2% | 2.2% | -20.5% | -3.4%
Cc1ccc2c(c1)C1CN(C)CCC1N2C(=O)COc1ccc(N(C)C(=O)c2ccccc2)cc1 (stereo not given) | 5.2% | 0.5% | 14.6% | -3.1% | 10.4% | 10.0%
CCc1cccc(C)c1NC(=O)CSc1nc2ccccc2n1CC(=O)N(C)C | -20.6% | 12.9% | 6.5% | -2.8% | 2.6% | 2.3%
O=C1c2ccccc2C(=O)c2c1cccc2N(CCO)CCO | 8.4% | -9.6% | -20.7% | ? | 1.8% | 3.2%
O=C1C=C(N(CCO)Cc2ccccc2)c2ccccc2C1=O | -9.8% | ? | 44.7µM* | -0.6% | 23.5% | 9.5%
CCSc1nc2ccccc2c(=O)n1C1CCOC(C)(C)C1 (stereo not given) | -12.6% | 39.8µM* | -11.3% | -3.0% | 18.6% | 2.8%
Cc1ccc(NC2C(=O)NC(=O)NC2=O)cc1 | -2.0% | ? | 79.4µM* | 4.3% | 13.8% | -7.4%
Cc1nnc(-c2cnn(C)c2N)n1Cc1ccc(Cl)cc1 | -13.7% | 7.3% | 1.2% | -0.5% | -7.4% | -3.5%
CCCCC(=O)Nc1ncc(Br)s1 | -4.6% | 5.8% | 14.6% | ? | 3.2% | -1.2%
COc1cc(NC(=O)NS(=O)(=O)c2ccc(C)cc2)cc(OC)c1 | 15.0% | 16.3%[57.1 µM] | 18.2% | 1.5% | -10.4% | 1.2%
COc1ccc(NC(=O)NS(=O)(=O)c2ccc(C)cc2)cn1 | ? | 27.4% | 109.2% | ? | 11.5% | 100µM*
C/C(Nc1ccc(Cl)cc1)=C1/CCOC1=O | -14.4% | 0.0% | -14.0% | -3.4% | 4.0% | 4.5%
O=C(O)Cc1ccc(C(=O)c2ccc(Cl)cc2Cl)s1 | -5.9% | 35.5µM* | -20.3% | -2.3% | -1.3% | -6.7%
NC(=O)Cc1ccc(C(=O)c2ccc(Cl)cc2Cl)s1 | -9.7% | -17.2% | -0.7% | -1.7% | -1.6% | -7.8%
CCOC(=O)Cn1c(=O)n(Cc2ccccc2)c(=O)c2cccnc21 | 3.4% | 1.1% | 8.4% | 5.6% | 5.7% | 10.6%

Limited to EPAC2 ag and EPAC1 agonist (5 entries from above):
molecule	EPAC2 ag	EPAC1 agonist
COc1ccc(NC(=O)NS(=O)(=O)c2ccc(C)cc2)cn1	11.5%	100µM*
C/C(Nc1ccc(Cl)cc1)=C1/CCOC1=O	4.0%	4.5%
O=C(O)Cc1ccc(C(=O)c2ccc(Cl)cc2Cl)s1	-1.3%	-6.7%
NC(=O)Cc1ccc(C(=O)c2ccc(Cl)cc2Cl)s1	-1.6%	-7.8%
CCOC(=O)Cn1c(=O)n(Cc2ccccc2)c(=O)c2cccnc21	5.7%	10.6%

Compound activity from PubChem.
